Measured boiling point values of organic chemicals

Data: OPERA 2.9 data sets, kmansouri/OPERA on GitHub.

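These are experimental values that the OPERA curators gathered from public databases to train and test their QSAR models. One number stands for a compound and property, with no spread given. Conditions of the individual experiments are not part of the data. Where a salt, mixture or single isomer is drawn, the source does not say that exactly this form was tested. Some entries may be limits or estimates that an upstream database listed as plain numbers.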

The boiling point refers to atmospheric pressure (760 mmHg), by the definition of the set. "via" names the databases from which the curators took the value.

For CC(C)CCC1CCC(O)CC1 (centres undefined) [Cyclohexanol, 4-(3-methylbutyl)-] the data give boiling point 243.5 °C (via eChemPortal).
For FC(F)(F)C(F)(F)C(F)(F)C(F)(F)C(F)(F)C(F)(F)CCS [2-(Perfluorohexyl)ethanethiol] the data give boiling point 158 °C (via eChemPortal).
For CC(C)[C@@H]1CC[C@@H](C)C[C@H]1OC(=O)[C@H](C)O [Menthyl lactate] the data give boiling point 269.9 °C (via eChemPortal).
For CCCCN[Si](C)(NCCCC)NCCCC [Silanetriamine, N,N',N''-tributyl-1-methyl-] the data give boiling point 260.7 °C (via eChemPortal).
For C=CC(C)(C#N)Cc1ccccc1 (centres undefined) [2-Benzyl-2-methyl-3-butenitrile] the data give boiling point 260.5 °C (via eChemPortal).
For Fc1c(Cl)ncnc1Cc1ccccc1Cl [4-Chloro-6-(2-chlorophenoxy)-5-fluoropyrimidine] the data give boiling point 307.5 °C (via eChemPortal).
For CCCC(C)=NO [2-Pentanone oxime] the data give boiling point 168 °C (via OCHEM, eChemPortal).
For CCC1(CO)COCOC1 [(5-Ethyl-1,3-dioxan-5-yl)methanol] the data give boiling point 239.2 °C (via eChemPortal).
For CC(C)c1ccc(S(=O)(=O)O)cc1 [4-Isopropylbenzenesulfonic acid] the data give boiling point 170.5 °C (via eChemPortal).
For CO[Si](C)(C)CCl [Dimethyl(chloromethyl)methoxysilane] the data give boiling point 121.2 °C (via eChemPortal).
For CC(C)C(Br)C(=O)O[C@H]1C[C@H]2CC[C@]1(C)C2(C)C (stereo partly drawn) [D-bornyl alpha-bromoisovalerate] the data give boiling point 163 °C (via OCHEM).
For CCCCC1CCC(C2CCC(CCC)CC2)CC1 (centres undefined) the data give boiling point 352 °C (via eChemPortal).
For CCCNC(=O)C(C)(C)CO [3-Hydroxy-2,2-dimethyl-N-propylpropanamide] the data give boiling point 280.5 °C (via eChemPortal).
For Fc1ccc2c(c1)CC[C@@H]([C@H]1CO1)O2 (racemic) the data give boiling point 285.4 °C (via eChemPortal).
For CCCCCC1CCC(C2CCC(CCC)CC2)CC1 (centres undefined) [4-Pentyl-4'-propyl-1,1'-bi(cyclohexane)] the data give boiling point 366 °C (via eChemPortal).
For COc1cc(NC(C)CCCN)c2ncccc2c1 (centres undefined) [Primaquine] the data give boiling point 177 °C (via PubChem).
For CC(=O)/C(C)=C/C(C)C [(3E)-3,5-Dimethyl-3-hexen-2-one] the data give boiling point 164 °C (via eChemPortal).
For CC(=CCCC=O)CCCC(C)(C)O [9-Hydroxy-5,9-dimethyl-4-decenal] the data give boiling point 268 °C (via eChemPortal).
For FC(F)(F)OC(F)(CC1CO1)C(F)(F)F (centres undefined) [[2,3,3,3-Tetrafluoro-2-(trifluoromethoxy)propyl]oxirane] the data give boiling point 108 °C (via ChemicalBook).
For C=COC(=O)c1ccccc1 [Vinyl benzoate] the data give boiling point 207.3 °C (via eChemPortal).
For C=COCCOCCOCCOC=C [3,6,9,12-Tetraoxatetradeca-1,13-diene] the data give boiling point 252 °C (via eChemPortal).
For CC(=O)OC1CC(C)OC(C)O1 (centres undefined) [Dimethoxane] the data give boiling point 186.1 °C (via PubChem).
For C=C[Si](C)(N(CC)C(C)=O)N(CC)C(C)=O [Acetamide, N,N'-(ethenylmethylsilylene)bis[N-ethyl-] the data give boiling point 198 °C (via eChemPortal).
For Cn1cc(C(=O)Nc2ccccc2C2CC2C2CC2)c(C(F)F)n1 (centres undefined) [Sedaxane] the data give boiling point 270 °C (via OCHEM).
For Cc1c(Cl)ccc2c1C(=O)OC2=O [4,5-Dichloro-1,3-isobenzofurandione] the data give boiling point 329 °C (via OCHEM).
For CCOCC(C)OCC (centres undefined) [1,2-Diethoxypropane] the data give boiling point 123.9 °C (via eChemPortal).
For CC(S)CC(=O)OCC(COC(=O)CC(C)S)(COC(=O)CC(C)S)COC(=O)CC(C)S (centres undefined) the data give boiling point 358.9 °C (via eChemPortal).
For CCOC(=O)[C@@H]1[C@@H](C(C)C)[C@@H]2C=C[C@H]1C2 the data give boiling point 196.8 °C (via eChemPortal).
For CCC(C)C1CCCc2cccnc21 (centres undefined) [8-sec-Butyl-5,6,7,8-tetrahydroquinoline] the data give boiling point 276 °C (via eChemPortal).
For CCOC(=O)CC1C=CCC1 (centres undefined) [2-Cyclopentene-1-acetic acid, ethyl ester] the data give boiling point 196.6 °C (via eChemPortal).
For C=C[C@H]1CC[C@H]([C@H]2CC[C@H](CCC)CC2)CC1 the data give boiling point 329 °C (via eChemPortal).
For O=C(O)CO [Glycolic acid] the data give boiling point 169 °C (via eChemPortal).
For CC1(C)CC/C(=C\c2ccc(Cl)cc2)C1=O [(E)-5((4-Chlorophenyl)methylene)-2,2-dimethylcyclopentanone] the data give boiling point 344.3 °C (via eChemPortal).
For OCC(CO)(CBr)CBr [Pentaerythritol dibromide] the data give boiling point 252.5 °C (via PubChem, eChemPortal).
For O=C=NC[C@H]1CC[C@H](CN=C=O)CC1 the data give boiling point 255 °C (via eChemPortal).
For O=C(O)C(F)(F)C(F)(F)C(F)(F)C(F)(F)C(F)(F)C(F)(F)C(F)(C(F)(F)F)C(F)(F)F the data give boiling point 218 °C (via OCHEM).
For CC(C)=CCC/C(C)=C/CC/C(C)=C/C=O [(E,E)-Farnesal] the data give boiling point 302 °C (via OCHEM).
For FC(F)=C(F)C(F)(F)C(F)(Cl)C(F)(F)Cl (centres undefined) [4,5-Dichloro-1,1,2,3,3,4,5,5-octafluoropent-1-ene] the data give boiling point 91 °C (via ChemicalBook).
For C=CC(F)(F)C(F)(F)C(F)(F)C(F)(F)I [3,3,4,4,5,5,6,6-Octafluoro-6-iodohex-1-ene] the data give boiling point 135.4 °C (via eChemPortal).
For CC(C)(C=O)CN1CCOCC1 [2,2-Dimethyl-3-(morpholin-4-yl)propanal] the data give boiling point 199 °C (via eChemPortal).
For C1=CCCCC=CC1 [1,4-Cyclooctadiene] the data give boiling point 145 °C (via OCHEM).
For C=C1COC(C)(C)O1 [4-Methylen-2,2-dimethyl-1,3-dioxolane] the data give boiling point 106 °C (via eChemPortal).
For CCOC(=O)C1CCC(C(=O)OCC)CC1 (centres undefined) [Diethyl 1,4-cyclohexanedicarboxylate] the data give boiling point 278 °C (via eChemPortal).

Repeated from above, the 7 entries with the highest boiling point:

For CCCCCC1CCC(C2CCC(CCC)CC2)CC1 (centres undefined) [4-Pentyl-4'-propyl-1,1'-bi(cyclohexane)] the data give boiling point 366 °C (via eChemPortal).
For CC(S)CC(=O)OCC(COC(=O)CC(C)S)(COC(=O)CC(C)S)COC(=O)CC(C)S (centres undefined) the data give boiling point 358.9 °C (via eChemPortal).
For CCCCC1CCC(C2CCC(CCC)CC2)CC1 (centres undefined) the data give boiling point 352 °C (via eChemPortal).
For CC1(C)CC/C(=C\c2ccc(Cl)cc2)C1=O [(E)-5((4-Chlorophenyl)methylene)-2,2-dimethylcyclopentanone] the data give boiling point 344.3 °C (via eChemPortal).
For C=C[C@H]1CC[C@H]([C@H]2CC[C@H](CCC)CC2)CC1 the data give boiling point 329 °C (via eChemPortal).
For Cc1c(Cl)ccc2c1C(=O)OC2=O [4,5-Dichloro-1,3-isobenzofurandione] the data give boiling point 329 °C (via OCHEM).
For Fc1c(Cl)ncnc1Cc1ccccc1Cl [4-Chloro-6-(2-chlorophenoxy)-5-fluoropyrimidine] the data give boiling point 307.5 °C (via eChemPortal).